{"source": "paper PMC8426299", "about": "“Effect of severe renal impairment on the pharmacokinetics of brigatinib” (Investigational New Drugs, 2021)", "origin": "cited, not measured here", "tested_on": "ALK + NSCLC", "design": "method as in PMID 32780660", "conditions": "ALK inhibitor-naive patients; cited from earlier work", "data": [{"smiles": "C[C@@H](Oc1cc(-c2cnn(C3CCNCC3)c2)cnc1N)c1c(Cl)ccc(F)c1Cl", "note": "[crizotinib]", "values": [{"measurement": "24-month PFS, blinded independent review committee-assessed", "result": 26, "unit": "%"}, {"measurement": "24-month PFS, investigator-assessed", "result": 24, "unit": "%"}]}]}
